# AlphaSeq binding of Ab-14 light chain variants to a spike HR2 peptide

Values reported by Li et al. 2023, doi:10.1038/s41467-023-39022-2 (FLAb copy).

Target: peptide PDVDLGDISGINAS, taken from heptad repeat 2 (HR2) of SARS-CoV-2 spike.

Each scFv is VH, the linker GGGGSGGGGSGGGGS, VL, as in the parent Ab-14, and differs from it in the CDRs of the light chain only.
VH: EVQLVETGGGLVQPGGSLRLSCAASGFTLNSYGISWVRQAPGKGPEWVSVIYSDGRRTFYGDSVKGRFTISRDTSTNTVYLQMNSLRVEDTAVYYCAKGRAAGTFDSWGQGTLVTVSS
VL: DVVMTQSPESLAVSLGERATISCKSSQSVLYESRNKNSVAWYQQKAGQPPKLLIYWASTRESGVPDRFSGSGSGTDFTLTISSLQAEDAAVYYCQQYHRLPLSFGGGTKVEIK

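This is the validation round: designs drawn from the data on random variants, tested in the same kind of assay. Group labels follow the data file (Ctrl: baseline library sampled from a position-specific scoring matrix, with some repeated check sequences; Rand: our label for a block that the file lists under HC and that is probably the random mutants of the ten best first-round binders; En: ensemble of fine-tuned language models; GP: Gaussian process model; HC: hill climbing; Gen: genetic algorithm; Gibbs: Gibbs sampling; a sequence that several methods proposed may carry one label only). In AlphaSeq, yeast of one mating type display the scFv and yeast of the other type display the target. After mating in shaken culture at 30 °C for 16 h, diploids were selected and their barcode pairs sequenced. A regression on co-assayed BCL2-family reference pairs converts the normalised counts of each replicate to an apparent Kd. There are six technical replicates.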

Variants are written as CDR1, CDR2 and CDR3 of the light chain (limits as in the source). Parent: KSSQSVLYESRNKNSVA, WASTRES, QQYHRLPLS.
Variants here have more than six changes.
Values are apparent Kd, the geometric mean of the replicates that gave a signal; lower means stronger binding.
A pair that was not seen in any replicate is written "no signal"; this usually means weak binding, but a binder can also be missed.
In the paper, a design with two or fewer of six values counts as a poor binder.
Values of this round are not directly comparable with the first-round values of the same sequences.
Of ten entries with the parent sequence, four were seen in most replicates (averages 2.2 nM to 240 nM), three in one and three in none, so single entries are noisy.
As a blank, each scFv also met three strains without target: over all light chain designs, 4% of these pairings were detected, typically at 430 nM and seldom below 38 nM. For each scFv, signals with the empty controls are counted beside the result.

Variant IVSQMMLWGMHLKNSIA | EAQTRIN | QQYDRLPLF [En_Gen] showed 820 nM (2 of 6 replicates; controls 1 of 18).
Variant KLFQSWLYEQRNPNSVA | NASQRLL | QQYHRLPLS [GP_Gibbs] showed 3.0 nM (6 of 6 replicates; controls 1 of 18).
Variant KLGQSVAMTSRMQNNVA | DLNERER | QQYHRLPLS [En_HC] showed 1.2 nM (6 of 6 replicates; controls 0 of 18).
Variant MFSYNLHDMGANKNSVA | EMNKVTG | QDYHRLPLA [En_Gibbs] showed 8.6 nM (6 of 6 replicates; controls 0 of 18).
Variant KLSQSQEYESRNKNSVA | DATQRLV | QQYHRLPLS [GP_Gibbs] showed 560 pM (6 of 6 replicates; controls 0 of 18).
Variant RIQDHYAVGTMSGSSIA | EEATWMD | QQYSRLPLA [En_Gibbs] showed no signal (0 of 6 replicates; controls 0 of 18).
Variant TITEFMDNLSRNRNNVA | DTSTLGD | QSYDRLPLS [En_Gen] showed 4.9 nM (6 of 6 replicates; controls 3 of 18).
Variant KISMVAGHMSMSRNNVA | EMATREN | QQYDRLPLS [En_Gen] showed 7.8 nM (6 of 6 replicates; controls 0 of 18).
Variant HMNHEYLDYKNYENNIA | HGSQRLY | QQYSHLPLS [En_Gibbs] showed 3.0 nM (6 of 6 replicates; controls 0 of 18).
Variant KLYMTVGYEQRNKSRVA | DNNTRES | QQYDRLPLS [En_HC] showed 240 nM (2 of 6 replicates; controls 0 of 18).
Variant KFSQSVLYPSRTQNSVA | NASTRES | QQVHRYPLS [Rand] showed no signal (0 of 6 replicates; controls 0 of 18).
Variant KLQQQSEYWSRNKNSVA | QASTREQ | QQYHRLPLS [GP_Gibbs] showed 2.3 nM (6 of 6 replicates; controls 0 of 18).
Variant MVSQLMLWGLHAKNSIA | EAVTRFN | QQYDRLPLF [En_Gen] showed 310 nM (1 of 6 replicates; controls 0 of 18).
Variant MIDMGEAPNGQQTSSIA | QGHLRAE | QQYGRLPLC [En_Gibbs] showed 4.6 nM (6 of 6 replicates; controls 0 of 18).
Variant FLAYASDQTGLQGNAIA | QVNLKEN | QQYMRLPLA [En_Gibbs] showed 93 nM (1 of 6 replicates; controls 1 of 18).
Variant KLSISALHESIDKKSIA | ERSTREN | QQYHRLPLS [En_HC] showed 3.3 nM (6 of 6 replicates; controls 1 of 18).
Variant KLGAATRFESSNKANIA | NNSTREE | QQYHRLPLS [En_HC] showed 14 nM (6 of 6 replicates; controls 0 of 18).
Variant TLGGVMDMTSKNVNSVA | DLTTRGN | QQYHRLPLS [En_HC] showed 1.4 nM (6 of 6 replicates; controls 0 of 18).
Variant KLSQSWLYEQRNPNSVA | NASKRLL | QQYHRLPLS [GP_Gibbs] showed 3.4 nM (6 of 6 replicates; controls 1 of 18).
Variant TLYGLSNSMSKNKNNVA | EMSTREP | QQYDRLPLI [En_Gen] showed 2.2 nM (6 of 6 replicates; controls 1 of 18).
Variant TISTSALYEQTNKNSVA | ELTTRGS | QQYERLPLS [En_HC] showed 12 nM (6 of 6 replicates; controls 1 of 18).
Variant TISQLMNMGQFAISSVA | QASIRNE | QQYDRLPLI [En_Gen] showed 34 nM (6 of 6 replicates; controls 0 of 18).
Variant KVSQSAWMESRNANSVA | NASTREE | QQYHRLPLS [GP_Gibbs] showed 670 pM (6 of 6 replicates; controls 0 of 18).
Variant KIQMHLNQVAGQEGHVA | DASETWE | QQYFQLPIS [En_Gibbs] showed 11 nM (6 of 6 replicates; controls 0 of 18).
Variant QIAMEMYHGLNDNQNVA | DAMTYEK | QQYSRLPLF [En_Gibbs] showed 320 nM (1 of 6 replicates; controls 0 of 18).
Variant HISQMWMLESKNKNNVA | EESTRND | QSYFRLPLS [En_HC] showed 1.2 nM (6 of 6 replicates; controls 0 of 18).
Variant IISQSVLGESRNINSVA | QTSEREY | QQYDRLPLS [En_HC] showed no signal (0 of 6 replicates; controls 0 of 18).
Variant KWQNDSLFMGQYMNNIA | NTSLRTM | QQYYRLPLT [En_Gibbs] showed 4.6 nM (6 of 6 replicates; controls 0 of 18).
Variant MISQVLNTLTKQGNNVA | DLNNRED | QQYFRLPLS [En_Gen] showed 3.3 nM (3 of 6 replicates; controls 1 of 18).
Variant KFSQSVPAEDRNKGSVA | SASKRES | QQYHRLPLS [Ctrl] showed 880 pM (6 of 6 replicates; controls 0 of 18).
Variant KVSEFMRGMMRQKDSIA | DNETRSN | QQYDRLPLS [En_Gen] showed 24 nM (6 of 6 replicates; controls 2 of 18).
Variant IISGVMVMESKHKNSVA | NAETREY | QHYDRLPLS [En_HC] showed 41 nM (6 of 6 replicates; controls 0 of 18).
Variant KLTMITGLEKVSKNQVA | EMETREQ | QQYNRLPLS [En_Gen] showed 9.1 nM (6 of 6 replicates; controls 0 of 18).
Variant KVSQSVDGQDRNKNAVA | AASTRES | QQYHRLPLS [GP_Gibbs] showed 690 pM (6 of 6 replicates; controls 1 of 18).
Variant NLSWKQIMQNMDSMAVA | QTEQREA | QQYARLPLS [En_Gibbs] showed 3.3 nM (6 of 6 replicates; controls 1 of 18).
Variant MISQLYNMGTFAINSVA | QATLRNE | QQYDRLPLI [En_Gen] showed 9.9 nM (4 of 6 replicates; controls 0 of 18).
Variant KVSEFMKGLSMRKDSIA | DNTTRNS | QQYDRLPLS [En_Gen] showed 43 nM (3 of 6 replicates; controls 2 of 18).
Variant KLYMSTGYESRMKDSIA | DNSTRGR | QQYHRLPLS [En_HC] showed 15 nM (6 of 6 replicates; controls 2 of 18).
Variant MMSQVSGQGTRHRNNVA | QTETREP | QQYDRLPLI [En_Gen] showed 5.1 nM (6 of 6 replicates; controls 0 of 18).
Variant KFEQSWLYESRNVNSVA | QASQRSS | QQYHRLPLS [GP_Gibbs] showed 660 pM (6 of 6 replicates; controls 3 of 18).
Variant KIGMTLNQLLQKKNNVA | DLVERET | QQYFRLPLS [En_Gen] showed 2.0 nM (6 of 6 replicates; controls 0 of 18).
Variant IIHESYGLMSHKQSSIA | DNSTRED | QQYDRLPLS [En_Gen] showed no signal (0 of 6 replicates; controls 1 of 18).
Variant KVSSFMRGLMMRKDSIA | DNETRNS | QQYDRLPLS [En_Gen] showed 260 nM (4 of 6 replicates; controls 0 of 18).
Variant LIETLSQGMRLNWSAVA | EAHTLVQ | QYYARLPLS [En_Gibbs] showed no signal (0 of 6 replicates; controls 0 of 18).
Variant KLVQFMNRGTHHTSNIA | DAALRED | QQYHRLPLA [En_Gen] showed no signal (0 of 6 replicates; controls 0 of 18).
Variant SFSQHTMEEMSSNKAVA | EVTTTMN | QQYAQLPFI [En_Gibbs] showed 12 nM (3 of 6 replicates; controls 0 of 18).
Variant TISQSVLMTGLNRNSVA | QAEERVE | QQYHRLPLS [En_HC] showed 3.6 nM (6 of 6 replicates; controls 0 of 18).

The 5 strongest on average among those seen in every replicate, once more:

Variant KLSQSQEYESRNKNSVA | DATQRLV | QQYHRLPLS [GP_Gibbs] gave 560 pM (6 of 6 replicates; controls 0 of 18).
Variant KFEQSWLYESRNVNSVA | QASQRSS | QQYHRLPLS [GP_Gibbs] gave 660 pM (6 of 6 replicates; controls 3 of 18).
Variant KVSQSAWMESRNANSVA | NASTREE | QQYHRLPLS [GP_Gibbs] gave 670 pM (6 of 6 replicates; controls 0 of 18).
Variant KVSQSVDGQDRNKNAVA | AASTRES | QQYHRLPLS [GP_Gibbs] gave 690 pM (6 of 6 replicates; controls 1 of 18).
Variant KFSQSVPAEDRNKGSVA | SASKRES | QQYHRLPLS [Ctrl] gave 880 pM (6 of 6 replicates; controls 0 of 18).